Apparent affinities of Ab-14 variants for a coronavirus HR2 peptide

Antigen: PDVDLGDISGINAS, a 14-residue peptide of the SARS-CoV-2 spike HR2 region.

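Phage display of a naive human antibody library on the peptide gave the parent. Variants in AAYL50 differ from the parent at up to three CDR positions; double and triple changes were sampled at random. The assay is AlphaSeq: two haploid yeast populations carry antibody and antigen on their surface. After mating in shaken culture at 30 °C for 16 h, diploids were selected and their barcode pairs sequenced. The ratio of observed to expected reads was calibrated, replicate by replicate, on BCL2-family standards whose Kd was known from biolayer interferometry. There are three technical replicates.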

Parent: Ab-14, a human scFv built as VH, the linker GGGGSGGGGSGGGGS, VL. Only the CDRs of the light chain vary.
VH: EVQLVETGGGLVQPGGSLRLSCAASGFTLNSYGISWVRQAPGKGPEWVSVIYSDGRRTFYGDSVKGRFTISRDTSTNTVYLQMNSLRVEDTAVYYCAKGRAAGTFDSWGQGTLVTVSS
VL: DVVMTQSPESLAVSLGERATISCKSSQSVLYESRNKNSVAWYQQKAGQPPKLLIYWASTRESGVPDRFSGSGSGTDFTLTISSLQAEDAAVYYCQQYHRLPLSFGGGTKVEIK

Positions count from residue 1 of the parent VL; K24E puts E in place of K. Affinities are written as log10 Kd with Kd in nM; a lower number is a better binder. Averages over replicates are reported, and they cover detected replicates only. "ND" means that the variant was in the library but no mating with the target was seen in that replicate; the authors take this as a sign of poor binding, and no number exists. In this assay the parent's reference entry averaged 0.65; its copy inside this library read 1.68.

| changes | replicates, log10 nM | mean log10 Kd (nM) | empty controls |
|---|---|---|---|
| K24E+A57P+R60C | ND / 4.69 / ND | 4.69 | 3 of 9 (4.70) |
| L30K+A40D+S62P | ND / ND / 4.49 | 4.49 | 2 of 9 (3.57) |
| A40V+A57P+P101T | 4.78 / ND / ND | 4.78 | 7 of 9 (4.25) |
| T59L+R60M+S103L | ND / ND / 3.99 | 3.99 | 1 of 9 (4.11) |
| V39H+R60M+Q96M | ND / ND / 5.03 | 5.03 | 3 of 9 (3.94) |
| W56R | 0.93 / 1.14 / 1.08 | 1.05 | 2 of 9 (3.25) |
| E32V+R60N+S103V | 4.14 / 3.18 / ND | 3.66 | 3 of 9 (3.76) |
| V29E+A40D+T59N | ND / ND / ND | ND | 1 of 9 (3.17) |
| W56K+T59K+P101Q | ND / ND / ND | ND | 1 of 9 (3.20) |
| S33T+W56R+H98I | 0.44 / 0.72 / 0.55 | 0.57 | 2 of 9 (3.53) |
| E32R+A40I+R60K | 1.19 / 1.17 / 1.12 | 1.16 | 3 of 9 (5.47) |
| K36V+V39I+H98G | 0.66 / 0.85 / 0.74 | 0.75 | 2 of 9 (5.70) |
| V29H+R60N+S103Q | 3.88 / ND / 6.25 | 5.06 | 4 of 9 (4.17) |
| S26D+S28R+E32N | ND / 4.11 / 5.80 | 4.96 | 2 of 9 (4.79) |
| Y31F+N35G+S38F | ND / ND / ND | ND | 0 of 9 |
| L30I+A40D+T59G | ND / ND / ND | ND | 0 of 9 |
| K24M+Q27Y+S38V | ND / 4.35 / ND | 4.35 | 1 of 9 (4.29) |
| S28V+Y31M+L102I | 1.60 / 1.28 / 1.83 | 1.57 | 1 of 9 (3.94) |
| S26F+H98Q+L102W | ND / ND / ND | ND | 0 of 9 |
| S25H+E32R+V39R | ND / ND / ND | ND | 1 of 9 (2.46) |
| S28Q+N37F | 2.10 / 1.58 / 1.90 | 1.86 | 0 of 9 |
| N35D+A40L | 4.34 / 5.36 / ND | 4.85 | 5 of 9 (4.33) |
| K24N+Y31P+A57F | ND / ND / ND | ND | 0 of 9 |
| S33V+R60T | ND / ND / ND | ND | 2 of 9 (4.14) |
| R34L+A57G+Y97R | 0.75 / 0.87 / 0.91 | 0.85 | 0 of 9 |
| T59M+E61H+R99T | 1.79 / 1.65 / 1.95 | 1.79 | 2 of 9 (4.80) |
| S28C+A40W+R99P | ND / ND / ND | ND | 0 of 9 |
| K24R+L30Q+A57I | ND / ND / ND | ND | 1 of 9 (3.90) |
| S25A+K36T+S58R | 1.33 / 1.37 / 1.39 | 1.36 | 2 of 9 (4.43) |
| Q27L+L30P+Y97A | 2.20 / 2.02 / 1.98 | 2.07 | 3 of 9 (4.10) |
| S28Q+E61Y+S103E | 1.03 / 1.38 / 1.18 | 1.20 | 2 of 9 (3.69) |
| L30P+Y97A+L100D | 4.00 / 3.42 / 4.95 | 4.12 | 4 of 9 (4.75) |

A selection of 4 entries from above:

{"changes": "S33T+W56R+H98I", "replicates, log10 nM": "0.44 / 0.72 / 0.55", "mean log10 Kd (nM)": "0.57", "empty controls": "2 of 9 (3.53)"}
{"changes": "V39H+R60M+Q96M", "replicates, log10 nM": "ND / ND / 5.03", "mean log10 Kd (nM)": "5.03", "empty controls": "3 of 9 (3.94)"}
{"changes": "A40V+A57P+P101T", "replicates, log10 nM": "4.78 / ND / ND", "mean log10 Kd (nM)": "4.78", "empty controls": "7 of 9 (4.25)"}
{"changes": "S25H+E32R+V39R", "replicates, log10 nM": "ND / ND / ND", "mean log10 Kd (nM)": "ND", "empty controls": "1 of 9 (2.46)"}

As a blank, each scFv also met three strains without target: over library AAYL50, 18% of these pairings were detected, typically at 4.19 and seldom below 2.99. For each scFv, signals with the empty controls are counted beside the result, with their mean in brackets.

From the AlphaSeq antibody data of Engelhart et al. 2022 (doi:10.1038/s41597-022-01779-4), copy in the FLAb collection.